Laboratory results published in publication doi:10.1101/2025.05.16.654599 (bioRxiv, 2025).

Sequences of proteins named here, by UniProt entry; tags and fusion partners are left off. Residues count along the entry.
UniProt Q9ULR3, 38-514, stated change not applied: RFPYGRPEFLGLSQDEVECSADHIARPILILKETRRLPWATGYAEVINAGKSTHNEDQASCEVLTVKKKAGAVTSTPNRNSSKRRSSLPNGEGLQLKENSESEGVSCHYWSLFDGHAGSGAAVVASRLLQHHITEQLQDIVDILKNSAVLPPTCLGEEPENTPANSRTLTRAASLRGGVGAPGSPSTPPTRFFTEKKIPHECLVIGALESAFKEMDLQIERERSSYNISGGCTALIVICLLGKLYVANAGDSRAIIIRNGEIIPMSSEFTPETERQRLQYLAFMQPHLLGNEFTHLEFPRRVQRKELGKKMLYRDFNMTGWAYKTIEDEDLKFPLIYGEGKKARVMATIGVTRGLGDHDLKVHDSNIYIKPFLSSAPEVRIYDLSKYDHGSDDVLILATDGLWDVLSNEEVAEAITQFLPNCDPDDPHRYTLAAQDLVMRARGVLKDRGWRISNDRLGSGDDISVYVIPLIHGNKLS
UniProt Q9ULR3, whole entry L66R: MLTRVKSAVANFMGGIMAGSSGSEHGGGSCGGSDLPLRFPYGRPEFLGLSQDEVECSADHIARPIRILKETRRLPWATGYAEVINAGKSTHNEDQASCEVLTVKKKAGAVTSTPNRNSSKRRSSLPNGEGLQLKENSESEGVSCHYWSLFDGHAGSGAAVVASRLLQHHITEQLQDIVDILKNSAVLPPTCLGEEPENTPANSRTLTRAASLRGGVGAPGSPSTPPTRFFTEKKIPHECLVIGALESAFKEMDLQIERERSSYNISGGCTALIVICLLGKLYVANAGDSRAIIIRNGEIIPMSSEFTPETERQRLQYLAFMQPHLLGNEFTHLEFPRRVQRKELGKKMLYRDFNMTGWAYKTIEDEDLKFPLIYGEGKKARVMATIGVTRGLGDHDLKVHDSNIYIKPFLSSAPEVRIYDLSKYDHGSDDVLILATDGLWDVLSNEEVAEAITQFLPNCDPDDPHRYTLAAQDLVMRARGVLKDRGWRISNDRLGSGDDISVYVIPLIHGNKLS

Tests used:
mNeon Δ37 PPM1H (human) = mNeon Δ37 PPM1H (human) (UniProt Q9ULR3); assay: MST; unlabeled Rab titrated (16 serial dilutions) against 100 nM fluorescent mNeon PPM1H form; Monolith NT.115; 30 min in the dark in a reaction buffer; 3 independent measurements with different protein preparations
mNeon L66R PPM1H (human) = mNeon L66R PPM1H (human) (UniProt Q9ULR3); assay: as above

Kd (mNeon Δ37 PPM1H (human)) [µM] | Kd (mNeon L66R PPM1H (human)) [µM] | Substance
10.5 | 5.2 | His Rab8A (Q67L) full length (from UniProt P61006 1-207) (natural protein)
– | 9.6 | Rab12 (Q101L) full length (from UniProt Q6IQ22-2 1-244) (natural protein)
– | 1.1 | thio-phosphorylated Rab8A (from UniProt P61006 1-207) (natural protein)
